# In US9439928B2, “Method for combined conditioning and chemoselection in a single cycle” (THE REGENTS OF THE UNIVERSITY OF CALIFORNIA, priority 2011, dated 2016):
# Where two headings read alike, the source gives them in different places.
# Tested on: BM of HPRT-wt mice
# Details: for B220+ cells in BM / CD4+ cells in BM / CD8+ cells in BM / KLS (HSC) cells in BM / Mac1+/Gr1+ cells in BM: % of total CD45+ cells; for B220+ cells in BM / CD4+ cells in BM / CD8+ cells in BM / KLS (HSC) cells in BM / Mac1+/Gr1+ cells in BM / CD45+ cells in BM: mean ± SD, n=3
# [1] = single dose 10 mg/kg 6TG Day 1, analysis Day 4 (ii)
# [2] = two doses 10 mg/kg 6TG Days 1 and 3, analysis Day 4 (iii)
# [3] = two doses 10 mg/kg 6TG Days 1 and 3, analysis Day 7 (iv)
compound,measurement,setting,value
"Nc1nc2nc[nH]c2c(=S)[nH]1 [6TG, 6-thioguanine]",decrease of relative proportion of KLS progenitors in BM vs control,"10 mg/kg 6TG x 2, by Day 4, p<0.01",3 fold
same,decrease of relative proportion of KLS progenitors in BM vs control,"10 mg/kg 6TG x 2, by Day 7, p<0.001",10 fold
same,clinical signs,"any conditioning regimen, Day 4",No readily apparent clinical signs
same,change of relative percentage of B220+ cells in BM vs controls,by Day 4,no significant change
same,change of relative percentage of B220+ cells in BM vs controls,by Day 7,doubled
same,increase of relative percentage of mature CD8+ and CD4+ T cells in BM vs controls,"by Day 7, p<0.001",up to 7 fold
same,clinical signs,"conditioning regimens, extended observation, by Day 7",weight loss and pallor of the extremities
same,liver enzymes,following conditioning regimen,not elevated
same,B220+ cells in BM,[1],23.1 ± 2.2%
same,CD4+ cells in BM,[1],11.9 ± 2.5%
same,CD8+ cells in BM,[1],5.3 ± 1.7%
same,KLS (HSC) cells in BM,[1],1.3 ± 0.2%
same,Mac1+/Gr1+ cells in BM,[1],85.4 ± 1.8%
same,CD45+ cells in BM,[1],95.7 ± 0.8%
same,BM histology (H&E),"single dose 2.5, 5.0 or 10 mg/kg i.p. Day 1 or two doses 10 mg/kg Days 1 and 3, Day 4",Increasing myelotoxicity
same,B220+ cells in BM,[2],26.2 ± 1.8%
same,CD4+ cells in BM,[2],9.6 ± 0.6%
same,CD8+ cells in BM,[2],5.2 ± 0.4%
same,KLS (HSC) cells in BM,[2],1.4 ± 0.5%
same,Mac1+/Gr1+ cells in BM,[2],81.0 ± 1.3%
same,CD45+ cells in BM,[2],95.7 ± 0.1%
same,B220+ cells in BM,[3],56.3 ± 1.5%
same,CD4+ cells in BM,[3],20.5 ± 3.1%
same,CD8+ cells in BM,[3],25.0 ± 2.7%
same,KLS (HSC) cells in BM,[3],0.4 ± 0.2%
same,Mac1+/Gr1+ cells in BM,[3],61.8 ± 3.0%
same,CD45+ cells in BM,[3],82.8 ± 5.1%
same,BM nucleated cell count recovered from one femur and tibia,"two doses of 10 mg/kg 6TG, analyzed on Day 7, n=3",4.7×10^6±1.0×10^6
